Data from patent publication US20050014765A1, “Aryl-heteroaromatic products, compositions comprising them and use” (Aventis Pharma S.A., priority 2003, published 2005).

Chains of the proteins cited; added tags and fusions are not shown.
UniProt P02550, whole entry: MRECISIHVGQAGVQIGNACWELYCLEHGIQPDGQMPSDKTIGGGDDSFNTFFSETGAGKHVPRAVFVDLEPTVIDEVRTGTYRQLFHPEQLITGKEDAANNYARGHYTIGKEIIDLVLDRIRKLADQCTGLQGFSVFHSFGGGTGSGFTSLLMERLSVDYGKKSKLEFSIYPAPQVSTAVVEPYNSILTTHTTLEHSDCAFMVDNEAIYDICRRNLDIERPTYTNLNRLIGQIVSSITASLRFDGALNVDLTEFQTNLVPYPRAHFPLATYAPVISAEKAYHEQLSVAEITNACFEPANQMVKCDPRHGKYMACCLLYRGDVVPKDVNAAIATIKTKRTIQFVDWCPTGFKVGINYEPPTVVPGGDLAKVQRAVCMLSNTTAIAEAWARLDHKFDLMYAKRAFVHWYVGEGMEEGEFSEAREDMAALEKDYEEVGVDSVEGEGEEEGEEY
UniProt P02554, whole entry: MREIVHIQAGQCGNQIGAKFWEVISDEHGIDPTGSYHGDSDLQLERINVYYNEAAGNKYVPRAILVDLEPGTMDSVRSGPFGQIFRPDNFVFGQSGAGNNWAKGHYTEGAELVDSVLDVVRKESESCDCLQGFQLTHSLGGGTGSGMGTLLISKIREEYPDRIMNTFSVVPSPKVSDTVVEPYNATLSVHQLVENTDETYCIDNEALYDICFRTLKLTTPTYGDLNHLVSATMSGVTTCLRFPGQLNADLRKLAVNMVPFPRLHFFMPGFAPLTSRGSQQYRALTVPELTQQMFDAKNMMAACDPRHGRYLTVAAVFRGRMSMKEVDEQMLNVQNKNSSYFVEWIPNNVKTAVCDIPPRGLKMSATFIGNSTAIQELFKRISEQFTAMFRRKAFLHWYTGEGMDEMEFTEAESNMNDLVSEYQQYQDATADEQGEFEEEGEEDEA

Key:
[1] = molecular target: Tubulin purified from pig brains (Sus scrofa, UniProt P02550+P02554); assay: Assessment of the inhibition of tubulin polymerization (turbidimetry at 350 nm); details: read-out: Inhibition of tubulin polymerization IC 50; concentration which inhibits the rate of polymerization by 50%; tubulin 1 mg/ml, 37° C.
Experimental: Assessment of the Inhibition of Tubulin Polymerization
Tubulin is purified from pig brains according to published methods (Shelanski et al., 1973, Proc. Natl. Acad. Sci. USA, 70, 765-768. Weingarten et al., 1975, Proc. Natl. Acad. Sci. USA, 72, 1858-1862). Briefly, the brains are ground and centrifuged in an extraction buffer. The tubulin, present in the extract supernatant is subjected to two successive cycles of polymerization at 37° C. and depolymerization at 4° C., before being separated from the MAPs (Microtubule Associated Proteins) by chromatography on a phosphocellulose P11 column (Whatman). The tubulin thus isolated is more than 95% pure. It is stored in a buffer known as RB/2 30% glycerol, the composition of which is 50 mM MES-NaOH [2-(N-morpholino)ethanesulfonic acid], pH 6.8; 0.25 mM MgCl2; 0.5 mM EGTA; 30% (v/v) glycerol, 0.2 mM GTP (guanosine 5′-triphosphate).
The polymerization of the tubulin into microtubules is monitored by turbidimetry as follows: the tubulin is adjusted to a concentration of 10 μm (1 mg/ml) in the RB/2 30% glycerol buffer, to which are added 1 mM GTP and 6 mM MgCl2. […] The increase in turbidity of the solution is monitored at 350 nm. […]

[2] = system: HCT116 cells; assay: Inhibition of proliferation of the HCT116 human colon tumor line ([14C]-thymidine incorporation); details: read-out: Inhibition of HCT116 proliferation IC 50, 48 hours incubation at 37° C.
Experimental: Test for Determining the Inhibition of Proliferation of the HCT116 Human Colon Tumor Line
The proliferation of HCT116 cells is evaluated by mesuring the incorporation of [^14C]-thymidine in the following way. The HCT166 cells (from the ATCC) are cultured in a DMEM medium (Gibco) which contains 10% of fetal calf serum and antibiotics (1% penicillin, 1% streptomycin). To perform the proliferation test, the cells are seeded into 96-well cytostar microplates (Amersham) at the rate of 5000 cells per well. The [^14C]-thymidine (0.1 μCi/well) and the products to be evaluated are subsequently added. Variable concentrations of products up to 10 μM are used; the DMSO (solvent used to dissolve the products) should not exceed 0.5% in the medium. 48 hours after incubation at 37° C., the radioactivity incorporated into the cells is measured by counting the plate in a Tri-Lux counter (Wallac). The IC50 is defined as the concentration of product which reduces the radioactivity by 50% compared with an untreated control. A product with an IC50 of less than 10 μm is regarded as cytotoxic.

In the case of COc1cc(OC)cc(N2CCN(C(=O)c3cn(CCO)cc3-c3ccccc3)CC2)c1, the IC50 [1] is reported as 420 nM and the IC50 [2] is reported as 11.5 nM.
